Some tests of the compounds listed are not included; inactive here does not mean inactive elsewhere. Inconclusive results are not listed. Active and inactive are the calls of the source.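 The calls were made as follows: active = fitted activation curve crossing 40% at a concentration no higher than the sample's top valid tested dose; inconclusive = flat fitted curve at 30% to 70% activation, or poor curve fit; inactive = signal decrease, flat curve within 30%, or the rest.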
System: NIH3T3-HGL HSF-1 response element luciferase, 48 h
Assay: HSF-1 reporter activators over prolonged exposure, confirmation, cell-based, mouse, luciferase, cherry-pick, dose (AID 602296);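 also: test compounds applied by themselves with no MG132 co-treatment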

COc1cc(C(=O)NCC2(N(C)C)CCCCC2)c([N+](=O)[O-])cc1OC
AC40: inactive: > 26 µM

— PubChem BioAssay AID602296 (Broad Institute, 2012)
